Measurements published in PMC4961847 (2016).

Biological target: T1, PD-L2 ECD (Homo sapiens, UniProt Q9BQ51)
T1 chain: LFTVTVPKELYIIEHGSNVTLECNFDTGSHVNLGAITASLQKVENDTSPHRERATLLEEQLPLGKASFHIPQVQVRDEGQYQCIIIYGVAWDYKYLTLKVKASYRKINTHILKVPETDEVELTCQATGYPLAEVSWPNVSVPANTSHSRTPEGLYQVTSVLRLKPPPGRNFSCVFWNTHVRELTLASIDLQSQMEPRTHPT
Assay: magneto-nanosensor

B1: PD-1 ECD (protein)
chain: LDSPDRPWNPPTFSPALLVVTEGDNATFTCSFSNTSESFVLNWYRMSPSNQTDKLAAFPEDRSQPGQDCRFRVTQLPNGRDFHMSVVRARRNDSGTYLCGAISLAPKAQIKESLRAELRVTERRAEVPTAHPSPSPRPAGQFQTLV
  Kd: 4.7 µM
